Measurements as given in publication PMC6151454.

Molecular target: Calcineurin (CaN) enzyme from bovine brain (bovine (endogenous in brain)) (UniProt P48452)

Q: Which specific phosphatase activity of CaN against 4-MUP when CaM was pretreated with equivalent concentration of CaNp does the source give for “Calmodulin (CaM), chicken, recombinant (from UniProt P62149 2-149) (natural protein)” here?
A: 0.24 µM/h

Q: And the specific phosphatase activity of CaN against 4-MUP with equivalent concentration of CaM (0.12 µM/h without CaM)?
A: 0.83 µM/h
